Earlier results as cited in publication PMC4624469 (Synapse (New York, N.Y.), 2015).

Target: D2 Receptor
Details: read-out: Binding Affinity D2 Receptor; ref Heiderbreder et al., 2010; cited from earlier work

Q: Which Ki does the source give for `COc1ccccc1N1CCN(CCCCNC(=O)c2ccc3ccccc3c2)CC1` [BP 897] here?
A: The Ki was 61 nM.
